Assay results published in PMC8915595, “Revisiting the application of Immobilized Artificial Membrane (IAM) chromatography to estimate in vivo distribution properties of drug discovery compounds based on the model of marketed drugs” (ADMET & DMPK, 2020).

Chains of the proteins cited; added tags and fusions are not shown. Residues count along the entry.
UniProt P02768, 25-609: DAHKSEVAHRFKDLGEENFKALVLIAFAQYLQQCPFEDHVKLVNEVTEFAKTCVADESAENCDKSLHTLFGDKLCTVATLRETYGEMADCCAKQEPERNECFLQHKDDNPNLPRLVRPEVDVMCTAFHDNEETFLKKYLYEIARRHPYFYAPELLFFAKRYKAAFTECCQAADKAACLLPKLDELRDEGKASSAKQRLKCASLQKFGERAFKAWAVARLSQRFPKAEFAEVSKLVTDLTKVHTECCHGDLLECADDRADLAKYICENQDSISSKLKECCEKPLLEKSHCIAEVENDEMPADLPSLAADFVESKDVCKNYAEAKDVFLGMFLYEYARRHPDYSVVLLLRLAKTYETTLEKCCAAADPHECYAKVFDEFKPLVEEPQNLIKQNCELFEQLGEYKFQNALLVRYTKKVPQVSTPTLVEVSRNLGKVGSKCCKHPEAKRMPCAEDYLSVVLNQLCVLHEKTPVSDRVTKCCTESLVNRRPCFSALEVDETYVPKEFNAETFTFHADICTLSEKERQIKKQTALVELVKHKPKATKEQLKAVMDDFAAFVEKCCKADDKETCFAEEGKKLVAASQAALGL

How the values were obtained:
[1] = target: T1, human serum albumin (HSA) (Homo sapiens, UniProt P02768); settings: cited from earlier work
[2] = target: T1, human serum albumin (HSA); test: Protein binding on chemically bonded HSA column (Chiralpak-HSA); settings: remeasured in this study, pH 7.4
[3] = human

Row | SMILES | log K HSA from ref [13] [1] | log K HSA [2] | reference log Vdss [3]
1 | CC(CCc1ccccc1)NCC(O)c1ccc(O)c(C(N)=O)c1 (stereo not drawn) | 0.69 | 0.52 | –
2 | C[C@]12C=CC(=O)C=C1CC[C@@H]1[C@@H]2[C@@H](O)C[C@@]2(C)[C@H]1CC[C@]2(O)C(=O)CO | 0.8 | 1.08 | –
3 | CC(=O)Nc1nnc(S(N)(=O)=O)s1 [Acetazolamide] | – | 1.44 | –
4 | Clc1ccc2c(c1)C(N1CCNCC1)=Nc1ccccc1O2 [Amoxapine] | – | – | 1.67
5 | C[C@H]1C[C@H]2[C@@H]3CCC4=CC(=O)C=C[C@]4(C)[C@@]3(F)[C@@H](O)C[C@]2(C)[C@@]1(O)C(=O)CO [Betamethasone] | 1.09 | 1.39 | –
6 | CCOC(=O)c1ncn2c1CN(C)C(=O)c1cc(F)ccc1-2 [Flumazenil] | – | 8.50 | –
7 | CC(=O)N1CCN(c2ccc(OCC3COC(Cn4ccnc4)(c4ccc(Cl)cc4Cl)O3)cc2)CC1 (stereo not drawn) [Ketoconazole] | 4.8 | 5.40 | –
8 | O=c1n(CCCN2CCN(c3cccc(Cl)c3)CC2)nc2ccccn12 [Trazodone] | – | – | 0.01
